Data from article PMC11923992.

Assays:
[1] = proliferation, clonogenic survival with carboplatin, gemcitabine, paclitaxel; details: glycan lost; control: MDA-MB-231-YAPWT
[2] = ACM-induced YAP accumulation, immunoblot; details: glycan lost; control: MDA-MB-231-YAPWT in ACM
[3] = cycloheximide chase, YAP turnover rate; details: glycan lost
[4] = YAP immunofluorescence intensity; details: glycan lost; control: untreated ACM-conditioned MDA-MB-231
[5] = YAP IP, anti-ubiquitin blot; details: glycan lost; control: untreated ACM-conditioned MDA-MB-231
[6] = control: untreated ACM-conditioned MDA-MB-231

Protein | other: chemotherapy resistance of cells [1] | expression_or_secretion [2] | degradation_or_half_life ([3]; control: YAPWT) | expression_or_secretion [4] | degradation_or_half_life [3, 6] | other: ubiquitylation of YAP [5]
YAP (Yes-associated protein): YAPT83A (protein) parent chain: MDPGQQPPPQPAPQGQGQPPSQPPQGQGPPSGPGQPAPAATQAAPQAPPAGHQIVHVRGDSETDLEALFNAVMNPKTANVPQTVPMRLRKLPDSFFKPPEPKSHSRQASTDAGTAGALTPQHVRAHSSPASLQLGAVSPGTLTPTGVVSGPAATPTAQHLRQSSFEIPDDVPLPAGWEMAKTSSGQRYFLNHIDQTTTWQDPRKAMLSQMNVTAPTSPPVQQNMMNSASGPLPDGWEQAMTQDGEIYYINHKNKTTSWLDPRLDPRFAMNQRISQSAPVKQPPPLAPQSPQGGVMGGSNSNQQQQMRLQQLQMEKERLRLKQQELLRQAMRNINPSTANSPKCQELALRSQLPTLEQDGGTQNPVSSPGMSQELRTMTTNSSDPFLNSGTYHSRDESTDSGLSMSSYSVPRTPDDFLNSVDEMDTGDTINQSTLPSQQNRFPDYLEAIPGTNVDLGTLEGDGMNIEGEELMPSLQEALSSDILNDMESVLAATKLDKESFLTWL | decreases | abolishes | increases |  |  | 
YAP (Yes-associated protein): OSMI-1 (protein) parent chain: MDPGQQPPPQPAPQGQGQPPSQPPQGQGPPSGPGQPAPAATQAAPQAPPAGHQIVHVRGDSETDLEALFNAVMNPKTANVPQTVPMRLRKLPDSFFKPPEPKSHSRQASTDAGTAGALTPQHVRAHSSPASLQLGAVSPGTLTPTGVVSGPAATPTAQHLRQSSFEIPDDVPLPAGWEMAKTSSGQRYFLNHIDQTTTWQDPRKAMLSQMNVTAPTSPPVQQNMMNSASGPLPDGWEQAMTQDGEIYYINHKNKTTSWLDPRLDPRFAMNQRISQSAPVKQPPPLAPQSPQGGVMGGSNSNQQQQMRLQQLQMEKERLRLKQQELLRQAMRNINPSTANSPKCQELALRSQLPTLEQDGGTQNPVSSPGMSQELRTMTTNSSDPFLNSGTYHSRDESTDSGLSMSSYSVPRTPDDFLNSVDEMDTGDTINQSTLPSQQNRFPDYLEAIPGTNVDLGTLEGDGMNIEGEELMPSLQEALSSDILNDMESVLAATKLDKESFLTWL |  |  |  | decreases | increases | increases
YAP (Yes-associated protein): DON (GFAT inhibitor) (protein) parent chain: MDPGQQPPPQPAPQGQGQPPSQPPQGQGPPSGPGQPAPAATQAAPQAPPAGHQIVHVRGDSETDLEALFNAVMNPKTANVPQTVPMRLRKLPDSFFKPPEPKSHSRQASTDAGTAGALTPQHVRAHSSPASLQLGAVSPGTLTPTGVVSGPAATPTAQHLRQSSFEIPDDVPLPAGWEMAKTSSGQRYFLNHIDQTTTWQDPRKAMLSQMNVTAPTSPPVQQNMMNSASGPLPDGWEQAMTQDGEIYYINHKNKTTSWLDPRLDPRFAMNQRISQSAPVKQPPPLAPQSPQGGVMGGSNSNQQQQMRLQQLQMEKERLRLKQQELLRQAMRNINPSTANSPKCQELALRSQLPTLEQDGGTQNPVSSPGMSQELRTMTTNSSDPFLNSGTYHSRDESTDSGLSMSSYSVPRTPDDFLNSVDEMDTGDTINQSTLPSQQNRFPDYLEAIPGTNVDLGTLEGDGMNIEGEELMPSLQEALSSDILNDMESVLAATKLDKESFLTWL |  |  |  | decreases | increases | 
